# Experiments:
# [1] = Antagonist activity at human dopamine D2 receptor expressed in HEK293 cells by mitogenesis assay
# [2] = Agonist activity at human dopamine D2 receptor expressed in HEK293 cells by mitogenesis assay
SMILES,IC50 [1],EC50 [2]
COc1ccccc1N1CCN(CCCCNC(=O)c2ccc(-c3ccccn3)cc2)CC1 [N-(4-(4-(2-methoxyphenyl)piperazin-1-yl)butyl)-4-pyridin-2-ylbenzamide],107 nM,114 nM
COc1ccccc1N1CCN(CCCCNC(=O)c2ccc3c(c2)Cc2ccccc2-3)CC1 [N-(4-(4-(2-methoxyphenyl)piperazin-1-yl)butyl)-9H-fluorene-2-carboxamide],224 nM,–
